In US20170313754A1 (PROTAGONIST THERAPEUTICS, published 2017):

T1: human ferroportin (SLC40A1) fused in frame with GFP, stably expressed on HEK293 cells (human, UniProt Q9NP59 1-571)
T1 sequence (looked up): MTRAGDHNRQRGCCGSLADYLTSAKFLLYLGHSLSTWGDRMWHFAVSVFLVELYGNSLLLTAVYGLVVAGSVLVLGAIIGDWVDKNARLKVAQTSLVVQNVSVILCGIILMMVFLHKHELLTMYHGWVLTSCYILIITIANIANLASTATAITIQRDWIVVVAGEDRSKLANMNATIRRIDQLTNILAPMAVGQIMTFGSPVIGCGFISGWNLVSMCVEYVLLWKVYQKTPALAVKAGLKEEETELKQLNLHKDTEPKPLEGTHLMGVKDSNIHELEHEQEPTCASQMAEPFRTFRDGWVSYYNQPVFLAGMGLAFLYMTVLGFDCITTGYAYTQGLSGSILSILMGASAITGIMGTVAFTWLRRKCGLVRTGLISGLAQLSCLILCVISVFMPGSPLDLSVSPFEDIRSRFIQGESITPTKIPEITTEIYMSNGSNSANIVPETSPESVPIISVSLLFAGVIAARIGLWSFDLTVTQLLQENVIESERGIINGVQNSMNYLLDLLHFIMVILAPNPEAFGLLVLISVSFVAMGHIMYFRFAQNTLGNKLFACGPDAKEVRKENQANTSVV


How the values were obtained:
[1] = biological target: T1, human ferroportin (SLC40A1) fused in …; assay: cell-based or functional assay
[2] = biological target: T1, human ferroportin (SLC40A1) fused in …; assay: cell-based or functional assay; remark: listed apart in the source

Row | Binder | EC50 (nM) (n > 3), ferroportin internalization/degradation assay [1] | EC50 (nM) (n > 3), ferroportin internalization/degradation assay [2]
1 | DTHFPCIKF (N-terminal isovaleric acid on each subunit; the two subunits are joined at their C-termini through a [Lys] linker, which is followed by Lys(Palm)-NH2) [(Isovaleric acid-DTHFPCIKF)2[Lys]-Lys(Palm)-NH2] | 17 nM | –
2 | DTHFPCIKF (N-terminal cyclohexanoic acid on each subunit; the two subunits are joined at their C-termini through a [Lys] linker, which is followed by K(iso-Glu-Palm)-NH2) [(cyclohexanoic acid-DTHFPCIKF)2[Lys]K(iso-Glu-Palm)-NH2] | 17 nM | 17 nM
3 | DTHFPCIKF (N-terminal isovaleric acid on each subunit; the two subunits are joined at their C-termini through a [Lys] linker, which is followed by Lys[(isoGlu(octanoic acid)]-NH2)) [(Isovaleric acid-DTHFPCIKF)2[Lys]-Lys[(isoGlu(octanoic acid)]-NH2] | – | 17 nM

Read-outs that look alike come from different tables or passages of the source.
